Results from patent publication EP4549424A1, “NEW LITHIUM EXTRACTING AGENT AND LIQUID ORGANIC MIXTURE THEREOF, AND METHOD FOR EXTRACTING LITHIUM BY MEANS OF EXTRACTION” (Beijing Salt Lake Technology Development Company Limited, priority 2022, dated 2024).

Assays:
[1] = Liquid-liquid extraction from aqueous lithium-containing solution, ICP detection: lithium; settings: feed B1 (cLi 0.807, cNa 56.12 g/L, pH 11.48); organic phase and phase ratio per example;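 further: component concentrations in the aqueous phase were measured by inductively coupled plasma optical emission spectrometry after shaking and phase separation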
[2] = Liquid-liquid extraction from aqueous lithium-containing solution, ICP detection: sodium; settings: feed B1 (cLi 0.807, cNa 56.12 g/L, pH 11.48); organic phase and phase ratio per example;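 further: sodium measured by inductively coupled plasma optical emission spectrometry in the diluted aqueous phase left after shaking with the organic phase and phase separation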

2-hydroxy-2-phenylacetophenone [Example 41]
cLi, remaining aqueous phase R1 [1]: 0.248 g/L
cNa, remaining aqueous phase R1 [2]: 49.50 g/L
